{"source": "ChEMBL document CHEMBL3616415", "test": "Lipophilicity, log P of the compound", "conditions": "octanol/water", "note": "Only a part of the results on these compounds is given; other tests are left out."}
{"compound": "CCC(=O)N(CC1CCN(Cc2ccc3c(c2)CCC[C@H]3N)CC1)c1ccccc1", "values": [{"measurement": "logP", "result": 4.17}]}
